Screens (PubChem)
An excerpt weighted towards active compounds, which were near 2.1% of everything screened.
GRP78 ERSR act: ER stress response induction in glioma; 420,000 compounds, 0.02% hits; AID 602332; U87-MG GRP78 promoter luciferase reporter, 16 h; Potency, µM, for the others: at the top dose activation, hits mostly activators; also: potency is read from the fitted curve at half-maximal effect; series mostly up to about 76 µM; % of control where 0% means no effect; nearly all actives have a fitted effect of over 35% in size
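Stably transfected U87-MG glioma cells carrying a GRP78-based luciferase sensor; 16 h compound incubation. Luminescence end-point read 10 min after Bright-Glo addition at room temperature.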
Nrf2 activator: Nrf2 pathway activation; Potency, µM (titrated, usually from 46.1 µM), for inactives: top-dose activation, usual class: activators; AREc32 ARE-luciferase reporter (MCF7-derived line), luminescence, 24 h; 410,000 compounds, 0.31% hits; also: potency is read from the fitted curve at half-maximal effect; % of control where 0% means no effect; nearly all actives have a fitted effect of over 65% in size
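Each well held 1000 AREc32 cells, which were incubated with compound for 24 hr at 37 deg C after overnight attachment, and ARE reporter activity was quantified by firefly luciferase luminescence.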
TSG101-PTAP inh: blocks PTAP/TSG101 interaction to inhibit HIV-1 budding. 340,000 tested, under 10 active. Q99816. Potency, µM (doses to about 115 µM), for inactives: at the highest dose activity change, negative = inhibition, usual class: inhibitors. AID 493005. Fluorescence polarization, FITC-PTAP peptide / Tsg101 binding; active = well fitted inhibition curve with a large enough effect in the main read-out, with a control signal flat, not every such curve was filed as active; inconclusive = small, poorly fitted or top-dose-only effect, or effect the other way, or a change in a side signal; inactive = no such curve, though single readings can be large or run the other way; also: potency is read from the fitted curve at half-maximal effect; % of control where 0% means no effect
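Tsg101 binding domain (10 uM final) was mixed with compound and a FITC-labeled PTAP peptide (50 nM final) in HEPES pH 7.5 buffer with NaCl, Tween 20, EDTA and TCEP; fluorescence polarization was read after 20 min at r.t.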
miR-21 FLuc: miR-21 reporter, rising signal; HeLa miR-21 FLuc reporter, luciferase, 48 h; Potency, µM (highest dose often 38.3 µM), for the others: top-dose reporter change, positive = more light; 340,000 tested, under 10 active; AID 2288; active = well fitted rising curve with a large enough effect; inconclusive = small, poorly fitted or top-dose-only effect; inactive = no such curve, though single readings can be large or run the other way;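 further: % of control where 0% means no effect; miR-21 action dims this reporter so a rising signal means less miR-21 action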
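Using DMEM plus 10% FBS, HeLa miR-21-FLuc cells are incubated with test compounds (final up to about 40uM) for 48 hours; firefly luciferase signal is then imaged following reagent-mediated lysis.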
A549 tox-1: counter-screen for Nrf2 inhibitors: cytotoxicity in A549 cells | 390,000 compounds, 0.16% hits | AID 504648 | A549 ARE-Fluc cells, CellTiter-Fluor viability, 18-24 h | Potency, µM (series often up to 46 µM), inactives show at the highest dose activity change, negative = cytotoxicity, usual class: inhibitors; also: potency is read from the fitted curve at half-maximal effect; % is scaled to controls: 0 for no effect and ±100 for the full control effect
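A549 ARE_Fluc cells in 5% FBS OPTI-MEM were exposed to compounds in concentration-response for 18-24 h at 37 deg C. Viability was read by CellTiter-Fluor fluorescence (Ex 405/Em 525) after 30 min, before the luciferase read.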
Nrf2 block: Nrf2 pathway inhibition | A549 ARE-Fluc reporter, luciferase luminescence, 18-24 h | Potency, µM (series often up to 46 µM), for inactives: top-dose activity change, negative = inhibition, hits mostly inhibitors | 360,000 compounds, 2.1% hits; also: potency is read from the fitted curve at half-maximal effect; % is scaled to controls: 0 for no effect and ±100 for the full control effect; nearly all actives have a fitted effect of over 60% in size
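Cells were seeded and rested 2 h, then exposed to compounds for 18-24 h. CellTiter-Fluor was read first as a viability measure. BugLite was added 15 min before the final luminescent read of ARE-luciferase activity in A549 cells.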
FLuc counter 3: firefly luciferase inhibition, Nrf2 hit validation; shares compounds with Nrf2 block; purified firefly luciferase, luminescence inhibition; Potency, µM (top dose mostly 57.5 µM), inactives show at the top dose activity change, negative = inhibition, usual class: inhibitors; 1,400 compounds, 4% hits; AID 720522; also: potency is read from the fitted curve at half-maximal effect; % is scaled to controls: 0 for no effect and ±100 for the full control effect; nearly all actives have a fitted effect of over 65% in size
A549 tox-2: counter-screen for Nrf2 inhibitors: cytotoxicity in A549 ARE cells. shares compounds with Nrf2 block. A549 ARE-Fluc cells, cytotoxicity counterscreen. Potency, µM (doses to about 46.1 µM), for inactives: top-dose activity change, negative = cytotoxicity, actives largely listed as inhibitors. 1,400 compounds, 2% hits;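 also: potency is read from the fitted curve at half-maximal effect; cells exposed to compounds for 18 to 24 hours; % is scaled to controls: 0 for no effect and ±100 for the full control effect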
ARE-Fluc inh: reduces Nrf2 ARE reporter signal in A549 cells | 1,400 compounds, 74% hits | shares compounds with Nrf2 block | AID 720524 | A549 ARE-firefly luciferase reporter, luminescence | Potency, µM (titrated, usually from 46.1 µM), without a hit: top-dose activity change, negative = inhibition, hits mostly inhibitors; also: potency is read from the fitted curve at half-maximal effect; % is scaled to controls: 0 for no effect and ±100 for the full control effect; nearly all actives have a fitted effect of over 65% in size
* = called active by the depositor; ? = inconclusive; nt = no result shown. Unless noted, calls follow the shape of the dose curve; as a rule, active = well fitted curve in the direction sought with a large enough effect; inconclusive = small, poorly fitted or top-dose-only effect, or another doubt; inactive = no such curve, though single readings can be large; an effect the other way counts as inactive or inconclusive.

SMILES,GRP78 ERSR act,Nrf2 activator,TSG101-PTAP inh,miR-21 FLuc,A549 tox-1,Nrf2 block,FLuc counter 3,A549 tox-2,ARE-Fluc inh
COc1ccc(-c2c[n+]3c(n2-c2ccccc2)CCCCC3)cc1,-3%,0%,-3%,?,-11%,?,nt,nt,nt
O=C(Nc1ccccc1)c1ccc(Nc2c([N+](=O)[O-])cc([N+](=O)[O-])c3ccccc23)cc1,-4%,0%,-4%,-2%,-29%,7.3µM*,1%,-26%,5.2µM*
N=c1c2c(n(Cc3ccc(Cl)cc3)c3c1CCC3)CCC2,-7%,0%,-6%,?,-4%,?,nt,nt,nt
N=c1c2c(n(Cc3ccccc3)c3c1CCC3)CCC2,-8%,-1%,-5%,?,?,1.5µM*,-1%,-4%,?
CCCCn1c2c(c(=N)c3ccccc31)CCC2,-5%,0%,-1%,?,5%,-25%,nt,nt,nt
CCCCCn1c2c(c(=N)c3ccccc31)CCC2,-6%,0%,-5%,?,-5%,2.6µM*,2%,-10%,4.1µM*
COc1cccc(NCc2nnc(SC(C(=O)N(C)C)c3ccccc3)n2C2CCCCC2)c1 (stereo not given),-1%,nt,nt,nt,nt,nt,nt,nt,nt
Cc1ccc2c(c1)N(S(=O)(=O)c1cc(-c3onc(C)c3C)ccc1C)CCO2,-7%,0%,-2%,19%,1%,8.2µM*,1%,2%,?
Cc1cc(C)c(NS(=O)(=O)c2cc(-c3onc(C)c3C)ccc2C)c(C)c1,-3%,-1%,nt,16%,9%,?,nt,nt,nt
Nc1ccc(Oc2ccccc2-c2ccccc2)cc1,-18%,-2%,-3%,nt,9%,9.2µM*,?,2%,8.2µM*
CN(Cc1ccc(F)cc1)C(=O)c1cccc(S(=O)(=O)NCc2ccccc2)c1,-2%,4%,2%,nt,-1%,?,nt,nt,nt
C=CCOc1ccc(CN(C)C(=O)c2ccc(CNS(=O)(=O)c3ccc(C)c(C)c3)cc2)cc1,-1%,1%,-1%,nt,?,9.2µM*,0%,-25%,?
Cc1cnc(NC(=O)C2CC(=O)N(c3cccc(Cl)c3)C2)s1 (stereo not given),2%,0%,-3%,11%,?,2.1µM*,0%,?,nt
Nc1ccc(N2CCCCC2)c(S(=O)(=O)Nc2ccccc2Cl)c1,7%,3%,-3%,-1%,1%,-11%,nt,nt,nt
Nc1cc(S(=O)(=O)Nc2ccccc2Cl)ccc1N1CCCCC1,6%,0%,1%,nt,-10%,7.3µM*,9.5µM*,-4%,15µM*
NC(=O)c1ccccc1OCC(=O)N1CCC(Cc2ccccc2)CC1,-1%,0%,-5%,nt,-18%,5.2µM*,-14%,-1%,8.2µM*
COc1ccccc1-c1ccnc(-n2ncc(C(=O)NCc3ccncc3)c2C)n1,-3%,nt,nt,nt,nt,nt,nt,nt,nt
CC(=O)c1sc2c(c1OC(=O)c1ccc(Cl)cc1Cl)c(=O)n(-c1ccccc1)c(=S)n2-c1ccccc1,-8%,-1%,3%,-8%,?,3.3µM*,1%,?,nt
Cc1nc2ccccc2n1-c1nc(-c2ccco2)cc(C(F)(F)F)n1,0%,8%,0%,1%,?,4.6µM*,-12%,?,5.8µM*
Cc1cc(Cl)c(S(=O)(=O)N2CCN(c3ccc(F)cc3)CC2)cc1OCC(=O)NC1CCCCC1,-3%,0%,-5%,?,-28%,0.29µM*,1%,-27%,0.73µM*
CN(C)c1cc2c3ccccc3ccc2c2ccccc12,-2%,nt,nt,nt,nt,nt,nt,nt,nt
CC(C)CCCCCCCCCCCCC(=O)NCC(=O)NC1C(O)C(O)C(Nc2ncnc3nc[nH]c23)OC1C(O)CO (stereo not given),-8%,0%,-4%,nt,0.73µM*,0.058µM*,0%,?,0.013µM*
Cc1ccc(-c2nc3cc(Cl)ccc3o2)cc1NC(=O)COc1ccccc1C,3%,nt,nt,nt,nt,nt,nt,nt,nt
CC(C)NS(=O)(=O)c1ccc2[nH]c3nc(SCC(=O)Nc4ccc(F)c(F)c4)nnc3c2c1,nt,nt,nt,nt,-5%,3%,nt,nt,nt
Cc1cccc(N2CCN(C(=O)CCNS(=O)(=O)c3ccc4c(c3)CCC(=O)N4)CC2)c1C,-6%,-1%,-4%,16%,nt,5.8µM*,1%,1%,?
Cc1ccc(NC(=O)CCNS(=O)(=O)c2ccc3c(c2)CCC(=O)N3)cc1C,-6%,0%,1%,-1%,-6%,-4%,nt,nt,nt
O=C(C[n+]1c2ccccc2cc2ccccc21)c1ccc(F)cc1,-3%,nt,nt,nt,nt,nt,nt,nt,nt
CN(N=O)c1ccc(/C=C/c2ccccc2)cc1,1%,nt,nt,nt,nt,nt,nt,nt,nt
CCOc1ccc(CCNc2ncnc3onc(-c4ccc(Cl)cc4)c23)cc1,-2%,-1%,nt,11%,-9%,7.3µM*,2%,0%,13µM*

Five entries from above, with two lines to a compound:
Below each SMILES: GRP78 ERSR act | Nrf2 activator | TSG101-PTAP inh | miR-21 FLuc | A549 tox-1 | Nrf2 block | FLuc counter 3 | A549 tox-2 | ARE-Fluc inh
- Cc1cccc(N2CCN(C(=O)CCNS(=O)(=O)c3ccc4c(c3)CCC(=O)N4)CC2)c1C
  -6% | -1% | -4% | 16% | nt | 5.8µM* | 1% | 1% | ?
- Cc1ccc(NC(=O)CCNS(=O)(=O)c2ccc3c(c2)CCC(=O)N3)cc1C
  -6% | 0% | 1% | -1% | -6% | -4% | nt | nt | nt
- O=C(C[n+]1c2ccccc2cc2ccccc21)c1ccc(F)cc1
  -3% | nt | nt | nt | nt | nt | nt | nt | nt
- CN(N=O)c1ccc(/C=C/c2ccccc2)cc1
  1% | nt | nt | nt | nt | nt | nt | nt | nt
- CCOc1ccc(CCNc2ncnc3onc(-c4ccc(Cl)cc4)c23)cc1
  -2% | -1% | nt | 11% | -9% | 7.3µM* | 2% | 0% | 13µM*
